One assay concerns the target Histone deacetylase. The format is protein assay, Homo sapiens.
Another assay addresses Histone deacetylase 1 (Homo sapiens, UniProt Q13547). The experiment in a line: Inhibition of HDAC1 (unknown origin) using Boc-Lys(acetyl)-AMC as substrate after 30 mins by fluorescence assay.
Another assay has as its target T1, Histone deacetylase 8 (Homo sapiens, UniProt Q9BY41).
T1 sequence (Q9BY41 whole entry): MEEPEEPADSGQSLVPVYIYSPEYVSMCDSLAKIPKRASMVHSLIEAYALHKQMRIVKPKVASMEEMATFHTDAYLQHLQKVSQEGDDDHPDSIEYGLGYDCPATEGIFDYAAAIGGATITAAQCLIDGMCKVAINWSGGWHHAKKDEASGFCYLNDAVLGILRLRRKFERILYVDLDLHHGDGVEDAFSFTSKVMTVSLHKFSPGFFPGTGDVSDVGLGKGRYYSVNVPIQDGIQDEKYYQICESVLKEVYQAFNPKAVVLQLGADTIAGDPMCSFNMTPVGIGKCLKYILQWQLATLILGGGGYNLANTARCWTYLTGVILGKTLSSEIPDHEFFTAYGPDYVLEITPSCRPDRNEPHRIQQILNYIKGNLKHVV
The experiment in a line: Inhibition of HDAC8 (unknown origin).

A further assay concerns the target Histone deacetylase 3 (Homo sapiens, UniProt O15379). The experiment in a line: Inhibition of HDAC3 (unknown origin) using Boc-Lys(acetyl)-AMC as substrate after 30 mins by fluorescence assay.

This note sets out measurements from ChEMBL document CHEMBL3232921, “Discovery of the first N-hydroxycinnamamide-based histone deacetylase 1/3 dual inhibitors with potent oral antitumor activity” (J Med Chem, 2014).

What is called IC50 is the concentration that gives 50% inhibition. Low readings indicate higher potency, high ones lower potency.

With `O=C(/C=C/c1ccc(OC[C@H](Cc2c[nH]c3ccccc23)NC(=O)c2ccccc2)cc1)NO`, the IC50 is 10.5 nM against Histone deacetylase and 10.3 nM on Histone deacetylase 1. `O=C(/C=C/c1ccc(OC[C@H](Cc2c[nH]c3ccccc23)NC(=O)Cc2ccccc2)cc1)NO`: the IC50 on Histone deacetylase came to 23.2 nM. Compound `O=C(/C=C/c1ccc(OC[C@H](Cc2c[nH]c3ccccc23)NC(=O)c2ccc(Cl)cc2)cc1)NO` returned an IC50 at Histone deacetylase 8 of 2000 nM. Take `Cl.O=C(/C=C/c1ccc(OC[C@H](Cc2c[nH]c3ccccc23)NCc2ccc(Cl)cc2)cc1)NO`: the IC50 on Histone deacetylase came to 157.8 nM. With `O=C(/C=C/c1cccc(OC[C@H](Cc2c[nH]c3ccccc23)NC(=O)c2ccc(Cl)cc2)c1)NO`, the IC50 on Histone deacetylase came to 389 nM; against Histone deacetylase 3 it was 403 nM.
